Test results: PubChem BioAssay (NCI)
Some structures show a salt or complex split into parts, the way the source records it.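 Five concentrations, 48 hours, 96-well plates. GI50: concentration for 50% inhibition of growth. TGI denotes the concentration required for complete inhibition of growth.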

Assays:
Assay in all cases: inhibition of tumour cell growth, NCI panel, 48 h
NCI-H522 lung = system: NCI-H522 lung
SR leukemia = system: SR leukemia
SK-MEL-28 melanoma = system: SK-MEL-28 melanoma
DMS 114 small cell lung = system: DMS 114 small cell lung
SF-539 CNS = system: SF-539 CNS
UACC-257 melanoma = system: UACC-257 melanoma
NCI-H23 lung = system: NCI-H23 lung
LOX IMVI melanoma = system: LOX IMVI melanoma
SW-620 colon = system: SW-620 colon
HL-60(TB) leukemia = system: HL-60(TB) leukemia
MOLT-4 leukemia = system: MOLT-4 leukemia
HOP-92 NSCLC = system: HOP-92 NSCLC
A549 NSCLC = system: A549 NSCLC
A498 renal = system: A498 renal
KM20L2 colon = system: KM20L2 colon
HT29 colon = system: HT29 colon
OVCAR-4 ovarian = system: OVCAR-4 ovarian
SF-295 CNS = system: SF-295 CNS
NCI-H322M lung = system: NCI-H322M lung
ACHN renal = system: ACHN renal
CCRF-CEM leukemia = system: CCRF-CEM leukemia
786-0 renal = system: 786-0 renal
UACC-62 melanoma = system: UACC-62 melanoma
OVCAR-3 ovarian = system: OVCAR-3 ovarian
HCT-116 colon = system: HCT-116 colon
NCI-H460 lung = system: NCI-H460 lung
SNB-19 CNS = system: SNB-19 CNS
HCC-2998 colon = system: HCC-2998 colon
SNB-78 CNS = system: SNB-78 CNS
RXF 393 renal = system: RXF 393 renal
UO-31 renal = system: UO-31 renal
MALME-3M melanoma = system: MALME-3M melanoma
SK-MEL-2 melanoma = system: SK-MEL-2 melanoma
DMS 273 small cell lung = system: DMS 273 small cell lung
M14 melanoma = system: M14 melanoma
KM12 colon = system: KM12 colon
K-562 leukemia = system: K-562 leukemia

With `N#[O+].O=C([O-])c1ccccc1.[Re].[c-]1[c-][c-][cH-][c-]1.c1ccc([PH+](c2ccccc2)c2ccccc2)cc1` as the compound, how does the GI50 (NCI-H522 lung) read?
The GI50 was 35.3 µM.

What about the TGI (NCI-H522 lung) of the same compound?
The TGI was > 100 µM.

What about the GI50 (SR leukemia) of the same compound?
The GI50 was > 100 µM.

What about the TGI (SR leukemia) of the same compound?
Its TGI is > 100 µM.

And the GI50 (SK-MEL-28 melanoma)?
Its GI50 is 43.6 µM.

What about the TGI (SK-MEL-28 melanoma) of the same compound?
Its TGI is > 100 µM.

What about the GI50 (DMS 114 small cell lung) of the same compound?
The GI50 was 22.9 µM.

And the TGI (DMS 114 small cell lung)?
The TGI was > 100 µM.

And the GI50 (SF-539 CNS)?
The GI50 was 53.2 µM.

What about the TGI (SF-539 CNS) of the same compound?
Its TGI is > 100 µM.

And the GI50 (UACC-257 melanoma)?
Its GI50 is 38.7 µM.

And the TGI (UACC-257 melanoma)?
Its TGI is > 100 µM.

And the GI50 (NCI-H23 lung)?
Its GI50 is 27.3 µM.

What about the TGI (NCI-H23 lung) of the same compound?
Its TGI is > 100 µM.

What about the GI50 (LOX IMVI melanoma) of the same compound?
The GI50 was 22.8 µM.

And the TGI (LOX IMVI melanoma)?
The TGI was > 100 µM.

And the GI50 (SW-620 colon)?
Its GI50 is 55.7 µM.

What about the TGI (SW-620 colon) of the same compound?
Its TGI is > 100 µM.

What about the GI50 (HL-60(TB) leukemia) of the same compound?
The GI50 was 24.7 µM.

And the TGI (HL-60(TB) leukemia)?
Its TGI is > 100 µM.

And the GI50 (MOLT-4 leukemia)?
The GI50 was > 100 µM.

And the TGI (MOLT-4 leukemia)?
The TGI was > 100 µM.

What about the GI50 (HOP-92 NSCLC) of the same compound?
Its GI50 is 37.1 µM.

What about the TGI (HOP-92 NSCLC) of the same compound?
Its TGI is 87.9 µM.

And the GI50 (A549 NSCLC)?
The GI50 was 19 µM.

And the TGI (A549 NSCLC)?
Its TGI is 79.3 µM.

What about the GI50 (A498 renal) of the same compound?
Its GI50 is 55.6 µM.

What about the TGI (A498 renal) of the same compound?
Its TGI is > 100 µM.

What about the GI50 (KM20L2 colon) of the same compound?
Its GI50 is 70.3 µM.

And the TGI (KM20L2 colon)?
The TGI was > 100 µM.

What about the GI50 (HT29 colon) of the same compound?
Its GI50 is 73.6 µM.

And the TGI (HT29 colon)?
Its TGI is > 100 µM.

And the GI50 (OVCAR-4 ovarian)?
The GI50 was 16.6 µM.

And the TGI (OVCAR-4 ovarian)?
The TGI was > 100 µM.

And the GI50 (SF-295 CNS)?
The GI50 was 34.6 µM.

What about the TGI (SF-295 CNS) of the same compound?
The TGI was > 100 µM.

What about the GI50 (NCI-H322M lung) of the same compound?
Its GI50 is > 100 µM.

What about the TGI (NCI-H322M lung) of the same compound?
The TGI was > 100 µM.

What about the GI50 (ACHN renal) of the same compound?
Its GI50 is 59.7 µM.

And the TGI (ACHN renal)?
The TGI was > 100 µM.

And the GI50 (CCRF-CEM leukemia)?
Its GI50 is 48.8 µM.

What about the TGI (CCRF-CEM leukemia) of the same compound?
The TGI was > 100 µM.

And the GI50 (786-0 renal)?
Its GI50 is 59.2 µM.

And the TGI (786-0 renal)?
The TGI was > 100 µM.

What about the GI50 (UACC-62 melanoma) of the same compound?
Its GI50 is 42.4 µM.

And the TGI (UACC-62 melanoma)?
Its TGI is > 100 µM.

And the GI50 (OVCAR-3 ovarian)?
Its GI50 is 21.7 µM.

What about the TGI (OVCAR-3 ovarian) of the same compound?
The TGI was > 100 µM.

And the GI50 (HCT-116 colon)?
Its GI50 is 23.5 µM.

What about the TGI (HCT-116 colon) of the same compound?
Its TGI is > 100 µM.

What about the GI50 (NCI-H460 lung) of the same compound?
Its GI50 is 14.1 µM.

And the TGI (NCI-H460 lung)?
The TGI was > 100 µM.

What about the GI50 (SNB-19 CNS) of the same compound?
The GI50 was 53 µM.

What about the TGI (SNB-19 CNS) of the same compound?
The TGI was > 100 µM.

And the GI50 (HCC-2998 colon)?
The GI50 was 47.3 µM.

What about the TGI (HCC-2998 colon) of the same compound?
The TGI was > 100 µM.

What about the GI50 (SNB-78 CNS) of the same compound?
Its GI50 is 36.3 µM.

And the TGI (SNB-78 CNS)?
Its TGI is > 100 µM.

What about the GI50 (RXF 393 renal) of the same compound?
Its GI50 is 44.1 µM.

What about the TGI (RXF 393 renal) of the same compound?
The TGI was > 100 µM.

And the GI50 (UO-31 renal)?
Its GI50 is > 100 µM.

And the TGI (UO-31 renal)?
The TGI was > 100 µM.

And the GI50 (MALME-3M melanoma)?
Its GI50 is 22.3 µM.

And the TGI (MALME-3M melanoma)?
The TGI was 94.3 µM.

What about the GI50 (SK-MEL-2 melanoma) of the same compound?
The GI50 was 29.9 µM.

And the TGI (SK-MEL-2 melanoma)?
Its TGI is > 100 µM.

What about the GI50 (DMS 273 small cell lung) of the same compound?
Its GI50 is 29.9 µM.

And the TGI (DMS 273 small cell lung)?
The TGI was > 100 µM.

And the GI50 (M14 melanoma)?
The GI50 was 41.8 µM.

What about the TGI (M14 melanoma) of the same compound?
Its TGI is > 100 µM.

And the GI50 (KM12 colon)?
Its GI50 is 96.6 µM.

And the TGI (KM12 colon)?
Its TGI is > 100 µM.

And the GI50 (K-562 leukemia)?
Its GI50 is 26.3 µM.

And the TGI (K-562 leukemia)?
Its TGI is > 100 µM.
